Experiments:
His6-TEV-PPARγ-(234-505) = His6-TEV-PPARγ-(234-505) (Homo sapiens, UniProt P37231); assay: TR-FRET Assay to Measure Co-R Peptide Recruitment to PPARγ; details: read-out: TR-FRET i-Ag, Co-R peptide (SMRT-ID2) recruitment, top final concentration 20 μM
UM-UC-9 engineered cells = assay: Cell proliferation / short-term viability assay, CellTiter-Glo 144 h; details: read-out: CTGlo 144 h UMUC9.5, G150
Experimental: Cell Seeding for Proliferation Assay
UM-UC-9 engineered cells were cultured in Dulbecco's Modified Eagle Medium (DMEM) supplemented with 10% FBS, 25 mM glucose (high glucose), 4.0 mM L-glutamine, 2.0 mM GlutaMAX™, 1.0 mM pyruvate, 1.0% non-essential amino acids (NEAA) in a 95% humidified incubator at 37° C. with 5% CO2. Cell banks of UM-UC-9 engineered assay-ready cells (ARCs) were prepared from a very active growth stage. Vials of ARCs containing approximately 5×10^6 cells per vial were stored in liquid nitrogen vapor phase cryostorage until use.
For making assay plates, ARCs were recovered from cryostorage, strained in a […] cell strainer, verified for cell viability >90% and counted using a cell counter (Cellometer Auto 1000, Nexelom). Each cell line was seeded into 384-well plates (50 μl/well) using DMEM medium at a density previously determined to be in log growth phase 7 days post-seeding (500 cells/well) using a bulk reagent dispenser (Multidrop™ Combi, Thermo Scientific) with a large-bore plastic-tip cassette pre-sanitized with 70% ethanol. One plate of cells was designated as the pretreatment time-zero (T0) control. Freshly seeded plates were allowed to sit lidded for 30 minutes within a biosafety cabinet for cells to settle distributed within the plate wells uniformly and then placed into an automated incubator (STX110, Liconic) at 37° C., 5% CO2, and 95% relative humidity.
Preparation of Test Compound in Assay-Ready Plate
Compounds were stored in a low-temperature sample archive as 10 mM dimethyl sulfoxide (DMSO) solutions at −20° C. under reduced humidity (−45° C. dew point) and protected from light. All samples in the automated archive are stored in 2D barcoded polypropylene tubes, tracked through a laboratory information management system (LIMS), and have been verified for identity and purity by NMR (Chemistry, H3 Biomedicine) and by LCMS (Analytical Chemistry, H3 Biomedicine) at the time of sample registration. Identity by mass matching and purity are again verified at the time of sample request fulfillment by redundant LCMS methods (acidic and basic separation protocols; Analytical Chemistry, H3 Biomedicine). Samples retrieved from low-temperature archive storage were solubilized by heated sonication (Bransonic® Ultrasonic Bath, Branson), transferred (Microlab Starlet, Hamilton) and serially-diluted (Viaflo Assist, Integra) by low-volume liquid handlers, and tracked in LIMS by automation log files to create a ID barcoded master dose-response plate (MDR) to serve as a standard source for all assay-ready plates (ARP) used within an experiment. ARPs prepared by acoustic transfer (ATS-100, EDC) of nL volumes from the MDR source were heat-sealed (PlateLoc, Agilent) and stored at −20° C. prior to use (<7 days from production). Tracking of liquid transfers via acoustic dispenser log files were used to update the LIMS system for all ARP plate maps.
Measurement of Pretreatment Control Cells and Sample Anti-Proliferative Effects on Treated Cells
On day 0 (pretreatment cells) or day 7 (treated cells), a cell proliferation assay was performed using an automated robotic assay platform (ACell, High-Res Biosolutions). Cell ARP's were removed from incubation, their plate lid discarded, and using a bulk reagent dispenser (Multidrop™ Combi, Thermo Scientific with a small-bore metal-tip cassette) 25 μL (1/2 volume) of Cell Titer-Glo® 2.0 Cell Viability Assay reagent (Promega) was added to wells of columns 1-23 (column 24 will be used as plate background or positive control). Cell ARP's were incubated at room temperature in an automation hotel position for a total of 1.0 minute while the next plate was delivered to the bulk reagent dispenser and then lid-free cell ARP's were returned to incubate at 37° C. for 2.5 hours. […]

The chains behind the UniProt entries cited, without tags or fusion partners. Residues count along the entry.
UniProt P37231, 234-505 limits assumed: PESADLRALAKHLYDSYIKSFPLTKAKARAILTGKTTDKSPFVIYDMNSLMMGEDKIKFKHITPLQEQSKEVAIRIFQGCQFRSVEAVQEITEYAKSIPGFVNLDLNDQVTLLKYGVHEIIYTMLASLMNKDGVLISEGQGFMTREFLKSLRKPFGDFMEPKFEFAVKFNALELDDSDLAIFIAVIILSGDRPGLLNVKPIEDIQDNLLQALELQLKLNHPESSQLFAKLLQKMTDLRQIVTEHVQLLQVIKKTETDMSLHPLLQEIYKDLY

Structure (SMILES) | AC50 (His6-TEV-PPARγ-(234-505)) | IC50 (UM-UC-9 engineered cells)
COc1cc(-c2cc(C(=O)N3CC[C@H](C(=O)NC4CCC(C(F)(F)F)N(C)C4)CC34CC4)n[nH]2)c(F)cn1 (single isomer, unassigned) [Example 321-A] | 0.0027 µM | 0.0017 µM
COc1cc(-c2cc(C(=O)N3CC[C@H](C(=O)NC4CCC(C(F)(F)F)N(C)C4)CC34CC4)n[nH]2)c(F)cn1 (single isomer, unassigned) [Example 321-B] | 0.0123 µM | 0.0289 µM
COc1cc(-c2cc(C(=O)N3CC[C@H](C(=O)NC4CCC(C(F)(F)F)N(C)C4)CC34CC4)n[nH]2)c(F)cn1 (single isomer, unassigned) [Example 321-C] | 0.0398 µM | 0.13 µM
COc1cc(-c2cc(C(=O)N3CC[C@H](C(=O)NC4CCC(C(F)(F)F)N(C)C4)CC34CC4)n[nH]2)c(F)cn1 (single isomer, unassigned) [Example 321-D] | 0.0426 µM | 0.0622 µM
COc1cc(-c2cc(C(=O)N3CC[C@@H](C(=O)NC4CCC(C(F)(F)F)N(C)C4)CC34CC4)n[nH]2)c(F)cn1 (single isomer, unassigned) [Example 322-A] | 0.338 µM | 0.139 µM
COc1cc(-c2cc(C(=O)N3CC[C@@H](C(=O)NC4CCC(C(F)(F)F)N(C)C4)CC34CC4)n[nH]2)c(F)cn1 (single isomer, unassigned) [Example 322-B] | 0.436 µM | 0.67 µM
CCO[C@]1(C(F)(F)F)CC[C@@H](NC(=O)C2CCN(C(=O)c3cc(-c4cc(C)ncc4F)[nH]n3)C3(CC3)C2)CC1 (single isomer, unassigned) [Example 323-A] | 0.244 µM | 0.542 µM
CCO[C@]1(C(F)(F)F)CC[C@@H](NC(=O)C2CCN(C(=O)c3cc(-c4cc(C)ncc4F)[nH]n3)C3(CC3)C2)CC1 (single isomer, unassigned) [Example 323-B] | 0.0067 µM | 0.0023 µM
COc1cc(-c2cc(C(=O)N3CCC(C(=O)N[C@H]4CC[C@@](OC)(C(F)(F)F)CC4)CC34CC4)n[nH]2)c(F)cn1 (single isomer, unassigned) [Example 324-A] | 0.0702 µM | 0.0547 µM
COc1cc(-c2cc(C(=O)N3CCC(C(=O)N[C@H]4CC[C@@](OC)(C(F)(F)F)CC4)CC34CC4)n[nH]2)c(F)cn1 (single isomer, unassigned) [Example 324-B] | 0.0015 µM | 0.0006 µM
COc1cc(-c2cc(C(=O)N3CC[C@H](C(=O)NC4CCC5(CCO5)CC4)CC34CC4)n[nH]2)c(F)cn1 (single isomer, unassigned) [Example 325-A] | 0.187 µM | 2.89 µM
COc1cc(-c2cc(C(=O)N3CC[C@H](C(=O)NC4CCC5(CCO5)CC4)CC34CC4)n[nH]2)c(F)cn1 (single isomer, unassigned) [Example 325-B] | 0.149 µM | 0.113 µM
COc1cc(-c2cc(C(=O)N3CCC(C(=O)NC4CCC5(CCC(=O)N5C)CC4)CC34CC4)n[nH]2)c(F)cn1 (single isomer, unassigned) [Example 327-A] | 0.101 µM | 1.85 µM
COc1cc(-c2cc(C(=O)N3CCC(C(=O)NC4CCC5(CCC(=O)N5C)CC4)CC34CC4)n[nH]2)c(F)cn1 (single isomer, unassigned) [Example 327-B] | 15.3 µM | > 4 µM
COc1cc(-c2cc(C(=O)N3CCC(C(=O)NC4CCC5(CCC(=O)N5C)CC4)CC34CC4)n[nH]2)c(F)cn1 (single isomer, unassigned) [Example 327-C] | 0.301 µM | 2.11 µM
COc1cc(-c2cc(C(=O)N3CCC(C(=O)NC4CCC5(CCC(=O)N5C)CC4)CC34CC4)n[nH]2)c(F)cn1 (single isomer, unassigned) [Example 327-D] | 18.8 µM | > 4 µM
CCN1C(=O)CCC12CCC(NC(=O)C1CCN(C(=O)c3cc(-c4cc(OC)ncc4F)[nH]n3)C3(CC3)C1)CC2 (single isomer, unassigned) [Example 328-A] | 0.0534 µM | 0.685 µM
CCN1C(=O)CCC12CCC(NC(=O)C1CCN(C(=O)c3cc(-c4cc(OC)ncc4F)[nH]n3)C3(CC3)C1)CC2 (single isomer, unassigned) [Example 328-B] | 3.65 µM | > 10 µM
CCN1C(=O)CCC12CCC(NC(=O)C1CCN(C(=O)c3cc(-c4cc(OC)ncc4F)[nH]n3)C3(CC3)C1)CC2 (single isomer, unassigned) [Example 328-C] | 1.24 µM | 1.82 µM
CCN1C(=O)CCC12CCC(NC(=O)C1CCN(C(=O)c3cc(-c4cc(OC)ncc4F)[nH]n3)C3(CC3)C1)CC2 (single isomer, unassigned) [Example 328-D] | 1.63 µM | > 10 µM

Further lines, with some results ahead:

AC50 (His6-TEV-PPARγ-(234-505)) | Structure (SMILES) | IC50 (UM-UC-9 engineered cells)
0.0586 µM | COc1cc(-c2cc(C(=O)N3C4CCC3CC(C(=O)NC3CCC(C(F)(F)F)N(C)C3)C4)n[nH]2)c(F)cn1 (single isomer, unassigned) [Example 306-C] | 0.268 µM
0.58 µM | COc1cc(-c2cc(C(=O)N3[C@@H]4CC[C@H]3C[C@H](C(=O)NC3CCC(C(F)(F)F)N(C)C3)C4)n[nH]2)c(F)cn1 (single isomer, unassigned) [Example 306-E] | 1.05 µM
0.608 µM | COc1cc(-c2cc(C(=O)N3[C@@H]4CC[C@H]3C[C@H](C(=O)NC3CCC(C(F)(F)F)N(C)C3)C4)n[nH]2)c(F)cn1 (single isomer, unassigned) [Example 306-F] | 0.607 µM
0.106 µM | Cc1cc(-c2cc(C(=O)N3[C@@H]4CC[C@H]3C[C@H](C(=O)NC3CCC(C(F)(F)F)N(C)C3)C4)n[nH]2)c(F)cn1 (single isomer, unassigned) [Example 311-A] | 0.414 µM
0.0094 µM | Cc1cc(-c2cc(C(=O)N3[C@@H]4CC[C@H]3C[C@H](C(=O)NC3CCC(C(F)(F)F)N(C)C3)C4)n[nH]2)c(F)cn1 (single isomer, unassigned) [Example 311-B] | 0.0425 µM
0.997 µM | Cc1cc(-c2cc(C(=O)N3[C@@H]4CC[C@H]3C[C@H](C(=O)NC3CCC(C(F)(F)F)N(C)C3)C4)n[nH]2)c(F)cn1 (single isomer, unassigned) [Example 311-C] | 2.35 µM
0.0326 µM | Cc1cc(-c2cc(C(=O)N3[C@@H]4CC[C@H]3C[C@H](C(=O)NC3CCC(C(F)(F)F)N(C)C3)C4)n[nH]2)c(F)cn1 (single isomer, unassigned) [Example 311-D] | 0.242 µM
3.2 µM | COc1cc(-c2cc(C(=O)N3CC[C@@H](C(=O)NC4CCC(C(F)(F)F)N(C)C4)CC34CC4)n[nH]2)c(F)cn1 (single isomer, unassigned) [Example 322-C] | > 4 µM
0.0885 µM | COc1cc(-c2cc(C(=O)N3[C@@H]4CC[C@H]3C[C@H](C(=O)NC3CCC(C(F)(F)F)N(CC(C)(C)F)C3)C4)n[nH]2)c(F)cn1 (single isomer, unassigned) [Example 326-A] | 0.0932 µM
0.485 µM | COc1cc(-c2cc(C(=O)N3[C@@H]4CC[C@H]3C[C@H](C(=O)NC3CCC(C(F)(F)F)N(CC(C)(C)F)C3)C4)n[nH]2)c(F)cn1 (single isomer, unassigned) [Example 326-B] | 1.31 µM
0.156 µM | COc1cc(-c2cc(C(=O)N3[C@@H]4CC[C@H]3C[C@H](C(=O)NC3CCC(C(F)(F)F)N(CC(C)(C)F)C3)C4)n[nH]2)c(F)cn1 (single isomer, unassigned) [Example 326-C] | 0.287 µM
2.57 µM | COc1cc(-c2cc(C(=O)N3[C@@H]4CC[C@H]3C[C@H](C(=O)NC3CCC(C(F)(F)F)N(CC(C)(C)F)C3)C4)n[nH]2)c(F)cn1 (single isomer, unassigned) [Example 326-D] | 2.89 µM
